From patent US10202388B2, “Fused-ring compounds, pharmaceutical composition and uses thereof” (SHANGHAI DE NOVO PHARMATECH CO., LTD., priority 2015, dated 2019)
pIC50: −log10 of the molar value.

Sequences of proteins named here, by UniProt entry; tags and fusion partners are left off.
UniProt P14902, whole entry: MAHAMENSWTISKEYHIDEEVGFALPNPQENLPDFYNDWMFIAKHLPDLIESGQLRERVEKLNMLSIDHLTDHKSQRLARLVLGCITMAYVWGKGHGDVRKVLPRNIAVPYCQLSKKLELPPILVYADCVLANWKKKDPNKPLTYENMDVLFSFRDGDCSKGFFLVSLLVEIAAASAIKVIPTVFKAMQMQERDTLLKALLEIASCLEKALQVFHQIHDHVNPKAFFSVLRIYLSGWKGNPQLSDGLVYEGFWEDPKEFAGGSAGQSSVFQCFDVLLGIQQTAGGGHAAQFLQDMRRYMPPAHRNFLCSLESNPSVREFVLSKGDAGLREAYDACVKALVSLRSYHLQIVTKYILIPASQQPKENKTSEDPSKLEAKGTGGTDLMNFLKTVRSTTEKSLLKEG

target: HeLa cell IDO1 (Homo sapiens (Human), UniProt P14902); test: HeLa cell based IDO1 inhibition assay (kynurenine readout, IFN-γ induced); settings: read-out: HeLa cell IDO1 IC50, HeLa cells

First: CC1(O)C2CC3CC1CC(C(O)CC1c4c(F)cccc4-c4cncn41)(C3)C2 (single isomer, unassigned) [24B]
Second: NS(=O)(=O)NCCCOC1C2CC3CC1CC(C(O)CC1c4c(F)cccc4-c4cncn41)(C3)C2 (single isomer, unassigned) [132B]
The pIC50 of the first is higher: 6.30 to 7.00 for the first, 5.00 to 6.00 for the second.

`N#Cc1ccc(NC(=O)NC23CC4CC(C2)C(C(O)CC2c5ccccc5-c5cncn52)C(C4)C3)cc1` (single isomer, unassigned) [161A] and `O=S(=O)(Cc1ccccc1)NC12CC3CC(C1)C(C(O)CC1c4ccccc4-c4cncn41)C(C3)C2` (stereo not drawn) fall in the same range of pIC50: 6.30 to 7.00 for the first, 6.30 to 7.00 for the second.

First: CC1(O)C2CC3CC1CC(C(O)CC1c4c(F)cccc4-c4cncn41)(C3)C2 (single isomer, unassigned) [24A]
Second: NS(=O)(=O)NCCCOC1C2CC3CC1CC(C(O)CC1c4c(F)cccc4-c4cncn41)(C3)C2 (single isomer, unassigned) [132A]
The pIC50 of the first is higher: greater than 7.00 for the first, 6.30 to 7.00 for the second.

First: CC(=O)Nc1ccc(S(=O)(=O)NC2C3CC4CC2CC(C(O)CC2c5c(F)cccc5-c5cncn52)(C4)C3)cc1 (stereo not drawn)
Second: N#Cc1ccc(NC(=O)NC23CC4CC(C2)C(C(O)CC2c5ccccc5-c5cncn52)C(C4)C3)cc1 (single isomer, unassigned) [161B]
The pIC50 of the first is higher: 6.30 to 7.00 for the first, 6.00 to 6.30 for the second.

same assay, conditions: read-out: HeLa cell IDO1 IC50, HeLa cells, tested form: HCl

`Cc1ccc(S(=O)(=O)NC23CC4CC(C2)C(C(O)CC2c5ccccc5-c5cncn52)C(C4)C3)cc1` (stereo not drawn) gave a pIC50 greater than 7.00.
